Patent US20230054318A1, “PERSONALIZED TUMOR VACCINE AND USE THEREOF FOR CANCER IMMUNOTHERAPY” (priority 2019, published 2023)

Assay: Human Equivalent Dose (HED) calculation based on body surface area
Conditions: for HED: Mouse Km=3, Human Km=37; for Animal NOAEL: mouse (~20 g)
Text: Provided herein are methods for calculating HED of the MBTA components based on body surface area.
See details from: Nair A B, Jacob S. A simple practice guide for dose conversion between animals and human. J Basic Clin Pharma 2016; 7:27-31
A formula to calculate HED is shown as follows:
HED(mg/kg)=Animal dose(mg/kg)Animal Km/Human Km

Lipoteichoic acid [LTA]
HED/Safety Factor (10): 0.00973 mg/kg | Maximum Recommended Starting Dose (MRSD, assuming 60 kg adult): 0.5838 mg/day | HED: 0.0973 mg/kg

Oleyl-O-poly(ethylene glycol)-succinyl-N-hydroxy-succinimidyl esters [BAM]
HED/Safety Factor (10): 0.03973 mg/kg | Maximum Recommended Starting Dose (MRSD, assuming 60 kg adult): 2.384 mg/day | HED: 0.3973 mg/kg | Animal NOAEL: 4.9 mg/kg

Polyinosinic:polycytidylic acid [Poly I:C]
HED/Safety Factor (10): 0.00973 mg/kg | Maximum Recommended Starting Dose (MRSD, assuming 60 kg adult): 0.5838 mg/day | HED: 0.0973 mg/kg | Animal NOAEL: 1.2 mg/kg
